Among the data in PubChem BioAssay AID652105 (National Center for Advancing Translational Sciences (NCATS), 2013) are max response values, retold here.

Protein sequences, listed by entry. Tags and fused reporters are not part of them. Lines headed by an entry give the natural chain unless they say otherwise; changes in a name come on top.
UniProt P48426: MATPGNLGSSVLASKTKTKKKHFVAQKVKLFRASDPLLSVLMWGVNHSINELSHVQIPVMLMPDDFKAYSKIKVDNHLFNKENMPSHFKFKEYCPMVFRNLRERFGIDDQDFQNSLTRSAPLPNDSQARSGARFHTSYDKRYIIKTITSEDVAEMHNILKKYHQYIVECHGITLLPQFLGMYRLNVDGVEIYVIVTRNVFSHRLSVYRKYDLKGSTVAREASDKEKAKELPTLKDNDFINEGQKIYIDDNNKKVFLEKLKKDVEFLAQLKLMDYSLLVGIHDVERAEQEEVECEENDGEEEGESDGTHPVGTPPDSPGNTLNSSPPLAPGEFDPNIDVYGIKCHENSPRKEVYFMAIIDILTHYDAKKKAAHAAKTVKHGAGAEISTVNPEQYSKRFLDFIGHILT

The list shows a part of the results, in another mix than the full data. Calls of active or inactive are those of the source. The calls were made as follows: active = max response of -50% or lower; inconclusive = between -30% and -50%; inactive = -30% or higher.
% is scaled to controls: 0 for no effect and ±100 for the full control effect.

The target of this test is Phosphatidylinositol 5-phosphate 4-kinase type-2 alpha (Homo sapiens) (UniProt P48426). Kind of test: qHTS for Inhibitors of phosphatidylinositol 5-phosphate 4-kinase (PI5P4K). Also: value at the top dose of about 77 µM. The settings on record: PI5P4Kalpha enzyme, ADP-Glo luminescence, 60 min; hits give low values. The text has this:
In addition to finding PI5P, we discovered the type II phosphatidylinositol 5-phosphate 4-kinase (PI5P4K) family (alpha, beta, gamma isoforms) that catalyze the conversion of PI5P to PI(4,5)P2. Alternatively, PI(4,5)P2 can also be synthesized through phosphatidylinositol-4-phosphate (PI4P) by the type I phosphatidylinositol 4-phosphate 5-kinases (PI4P5K). These PI5P4K enzymes therefore represent one way by which cells can regulate endogenous PI5P levels and play important roles in insulin signaling and in stress responses.
This proposal aims to identify and optimize specific modulators of human PI5P4K, phosphatidylinositol-5-phosphate 4-kinase (Type II PIPK), a family of kinases that regulate AKT signaling and tumor cell growth. In this project we aim to identify inhibitors of human PI5P4K using a quantitative high-throughput screening approach against the MLSMR containing ~400,000 small molecules.
NIH Chemical Genomics Center [NCGC]
NIH Molecular Libraries Probe Centers Network [MLPCN]
Assay Submitter (PI): Atsuo Sasaki, Beth Israel Deaconess Medical Center
2 microL of PI5P4Kalpha/substrate buffer (columns 1-2, 5-48) are dispensed into Greiner white solid bottom 1536-well assay plates; column 3 receives only PI5P4Kalpha buffer as 0x substrate controls; column 4 receives only substrate buffer as 0x PI5P4Kalpha controls. Final assay buffer consists of 0.038 M HEPES pH 7.4, 0.28 mM EGTA, 0.1% CHAPS, and 5% DMSO (final concentration). Compounds are then transferred via Kalypsys pin tool equipped with 1536-pin array (10 nL slotted pins, V&P Scientific, San Diego, CA). Following addition of compound, 1 microL of ATP (5 microM final concentration, all columns) is added to initiate the reaction. ATP is diluted in an assay buffer consisting of 0.02 M HEPES pH 7.4, 60 mM MgCl2, 15 microM ATP, and 0.1% CHAPS. The plates are then incubated at room temperature for 60 minutes. ADP-Glo reagent 1 is added (2 microL) and plates incubated for 45 minutes, before ADP-Glo reagent 2 (4 microL) is added and plates incubated for 30 minutes. They are then transferred to a ViewLux high-throughput CCD imager (PerkinElmer) wherein single end-point measurements of luminescence are acquired using a clear filter.
With `O=[N+]([O-])c1cc(Oc2ccc([N+](=O)[O-])cc2C(F)(F)F)cc([N+](=O)[O-])c1`, the max response was inactive: 3.82%.
For `COc1ccc(N/C(=N/P(=O)(N2CCOCC2)N2CCOCC2)N2CCOCC2)cc1`, the max response was inactive: -4.71%.
As to `O=P1(N(CCCl)CCCl)OCCCN1CCCl` (stereo not given), the max response was inactive: 1.47%.
To `O=P1(N(CCCl)CCCl)Nc2ccccc2N1` belongs inactive: -0.756%; to `COc1ccc2nc(NP(=O)(c3ccccc3)c3ccccc3)sc2c1`, inactive: 5.73%; to `COc1cc(I)ccc1[As](=O)(O)O`, inactive: -2.93%.
With `Cc1c2c(nc3ccccc13)SC(C(Cl)Cl)C2` (stereo not given), the max response is inactive: 1.45%.
With `O=C(OC1CN2CCC1CC2)C12CC3CC(CC(C3)C1)C2` (stereo not given), the max response is inactive: -0.243%.
The same measure for `Cc1cc(=O)[nH]c(N[N+](=O)[O-])n1`: inactive: 3.83%; for `CCN(CC)C(=S)SC(NC=O)C(Cl)(Cl)Cl` (stereo not given): inactive: 5.79%; for `O=C(OC1CN2CCC1CC2)c1cccc2[nH]cnc12` (stereo not given): inactive: -4.65%.
For `CC(C)NC(=O)NP(=O)(Oc1ccccc1)Oc1ccccc1`, the max response is inactive: 4.85%.
For the molecule `ClCCSc1nnc(-c2cccnc2)o1`, the max response was inactive: -1.48%.
To `CC(C)c1ccc(OP(=O)(Nc2ccccn2)Oc2ccccc2F)cc1` (stereo not given) belongs inactive: -0.433%; to `COC(=O)C1(C)COP(=O)(N2CCCCCC2)OC1` (stereo not given), inactive: -1.59%.
`Cc1ccc(OP(=O)(Nc2ccc([N+](=O)[O-])cn2)Oc2ccc(C)cc2)cc1`: the max response is inactive: 1.6%.
Take `[N-]=[N+]=NC1CCCCC1NC(=O)c1cc([N+](=O)[O-])cc([N+](=O)[O-])c1` (stereo not given): the max response was inactive: 0.0224%.
In the case of `Cc1ccc2nc3c(c(C)c2c1)CC(C(Cl)Cl)S3` (stereo not given), the max response was inactive: -1.24%.
In the case of `O=[As](O)(c1ccc(O)cc1)c1ccccc1O`, the max response was inactive: 8.49%.
Turning to `C[As](=O)(O)c1cccc(C(=O)O)c1`, the max response is inactive: -1.77%.
Take `COc1cc(C(=O)NCC2(N3CCOCC3)CCCCC2)ccc1OCC(C)C`: the max response was inactive: 8.1%.
`O=[N+]([O-])c1ccc(-c2cc([N+](=O)[O-])c(O)c([N+](=O)[O-])c2)cc1`: the max response was active: -61.7%.
Regarding `Cc1cc(SC(NC=O)C(Cl)(Cl)Cl)ncn1` (stereo not given), the max response is active: -95.3%.
In the case of `O=P(Nc1ccccn1)(c1cccc2ccccc12)c1cccc2ccccc12`, the max response was inactive: 0.0242%.
The same measure for `O=[N+]([O-])c1ccc(Nc2ccc(Oc3ccc([N+](=O)[O-])cc3[N+](=O)[O-])cc2)c([N+](=O)[O-])c1`: inactive: -3.31%; for `CCOC(=O)Nc1cccc([As](=O)(O)O)c1`: inactive: 3.71%.
On to `COP(=O)(OC)N1CC1c1ccccc1` (stereo not given), for which the max response is inactive: -8.72%.
To `CCCCOc1ccc(C(=O)NCC2(N3CCCCC3)CCCCC2)cc1OC` belongs inactive: -1.49%; to `O=C(O)C(O)c1ccc(N(CCCl)CCCl)cc1` (stereo not given), inactive: -11.8%.
As to `CCOC(=O)Nc1ccc([As](=O)(O)O)c(O)c1`, the max response is inactive: 3.79%.
For `CC1CCNP(=O)(N(CCCl)CCCl)O1` (stereo not given), the max response was inactive: 1.01%.
Consider `CCC(C)N(CC(C)C)C(=S)SC(NC(C)=O)C(Cl)(Cl)Cl` (stereo not given), for which the max response is inactive: -4.01%.
Consider `O=C(OC1CN2CCC1CC2)c1cccc([N+](=O)[O-])c1` (stereo not given), for which the max response was inactive: 1.32%.
Turning to `CCOC(=O)c1ccc(NC(=O)C(C)(CCl)SC)cc1` (stereo not given), the max response was inactive: -1.27%.
With `O=C(O)C(=O)c1ccc(N(CCCl)CCCl)cc1`, the max response is inactive: -12%.
Consider `O=C(COc1ccccc1)OC1CN2CCC1CC2` (stereo not given), for which the max response is inactive: 1.41%.
As to `O=C(Nc1ccncc1[N+](=O)[O-])c1ccc([N+](=O)[O-])cc1[N+](=O)[O-]`, the max response is inactive: 0.994%.
Take `COC(=O)C1(C)COP(=O)(N2CCCC2)OC1` (stereo not given): the max response was inactive: -2.37%.
As for `CN(C(=O)Cc1ccc(Cl)c(Cl)c1)[C@@H]1CCCC[C@H]1N1CCCC1`, the max response is inactive: -0.578%.
On to `CC(C)/C=N\N=C(\N)N[N+](=O)[O-]`, for which the max response was inactive: 3.28%.
Take `CC1(CBr)Cn2c(nc3ccccc3c2=O)S1` (stereo not given): the max response was inactive: 4.56%.
As for `COc1ccccc1CNC(=O)COC(=O)C(O)(c1ccccc1)c1ccccc1`, the max response was inactive: -3.33%.
The same measure for `Clc1n[nH]nc1-c1nn[nH][15n]1`: inactive: 0%.
On to `O=P1(N(CCCl)CCCl)NCCC(C(F)(F)F)O1` (stereo not given), for which the max response is inactive: 7.84%.
Take `CC(C)(C)C(=O)NC(Sc1ncccn1)C(Cl)(Cl)Cl` (stereo not given): the max response is inactive: 5.43%.
`CCC1=CC2Cc3nc4ccc(Cl)cc4c(N)c3C(C1)C2` (stereo not given): the max response was inactive: 0.676%.
As to `O=P1(Nc2ccccn2)COc2ccccc2OC1`, the max response is inactive: 5.42%.
In the case of `CCOP(=O)(NC(=NC(C)c1ccccc1)NC(C)c1ccccc1)OCC` (stereo not given), the max response is inactive: -2.69%.
For the molecule `CCOP(=O)(Nc1ccc(C)cn1)OCC`, the max response is inactive: 2.04%.
With `Nc1cccc([As](=O)(O)c2ccccc2)c1`, the max response is inactive: 0.334%.
`NS(=O)(=O)c1cccc(NC(=O)COC(=O)C(O)(c2ccccc2)c2ccccc2)c1`: the max response is inactive: 3.85%.
With `O=P1(Nc2ccc(Br)cn2)COc2ccccc2OC1`, the max response was inactive: -2.66%.
For the molecule `Cc1ccc(OCC(=O)OC2CN3CCC2CC3)cc1` (stereo not given), the max response is inactive: 3.89%.
With `O=[As](O)(c1cccs1)c1cccs1`, the max response is inactive: 3.11%.
To `Cc1ccc(S(=O)(=O)N(CCCN)CCCc2c(C)nc(N)[nH]c2=O)cc1` belongs inactive: -26.7%; to `O=P1(Nc2ncccn2)COc2ccccc2OC1`, inactive: -15.7%; to `CN(C)C1(CNC(=O)c2ccc(S(C)(=O)=O)cc2)CCCCC1`, inactive: -3.93%.
Turning to `O=C(/C=C/c1ccccc1)OC1CN2CCC1CC2` (stereo not given), the max response was inactive: 2.88%.
Consider `CCCC1OP(=O)(Nc2ccccc2)OCC1CC` (stereo not given), for which the max response is inactive: 2.52%.
`Cc1ccc(C(=O)OC2CN3CCC2CC3)cc1` (stereo not given): the max response was inactive: 3.23%.
Turning to `CC1CCC(C(C)C)C(OP(=O)(Nc2ccccn2)c2ccccc2)C1` (stereo not given), the max response was inactive: 5.64%.
Consider `N#CCCN(C(=O)COC(=O)C(O)(c1ccccc1)c1ccccc1)c1ccc(F)cc1`, for which the max response was inactive: -0.579%.
To `CN(C(=O)Cc1ccccc1)[C@@H]1CC[C@]2(CCCO2)C[C@H]1N1CCCC1` belongs inactive: -0.226%; to `CN(C)C(=O)c1cc([N+](=O)[O-])cc2c1-c1c(cc([N+](=O)[O-])cc1[N+](=O)[O-])C2=O`, inactive: 3.34%; to `CN(C(=O)Cc1ccc(Cl)c(Cl)c1)[C@H]1CC[C@@]2(CCCO2)C[C@@H]1N1CCCC1`, inactive: 1.8%.
For `NC(=O)Nc1ccc([As](=O)(O)O)cc1`, the max response was inactive: -3.58%.
With `O=C(O)COc1ccc([As](=O)(O)O)cc1[N+](=O)[O-]`, the max response was inactive: 2.27%.
As for `Nc1ccccc1[As](=O)(O)c1ccccc1`, the max response was inactive: -2.7%.
Regarding `O=P(Nc1nccs1)(c1ccccc1)c1nc2ccccc2s1` (stereo not given), the max response was active: -82.4%.
As to `O=P(Nc1nccs1)(Oc1ccccc1)Oc1ccccc1`, the max response is inactive: -1.37%.
With `CS(=O)(=O)c1cc([N+](=O)[O-])c2no[n+]([O-])c2c1`, the max response is active: -84.5%.
`COc1cc(C2NCCC3(OCCO3)C2(C)C)cc(OC)c1OC` (stereo not given): the max response was inactive: -0.0454%.
For `CCOP(=O)(Nc1cccc2ccccc12)OCC`, the max response was inactive: -0.278%.
As for `Cc1ccc(NCCc2c([N+](=O)[O-])cc([N+](=O)[O-])cc2[N+](=O)[O-])cc1`, the max response is inactive: -27.3%.
As for `Nc1cccc2c([As](=O)(O)O)cccc12`, the max response is inactive: 1.12%.
To `CCCOP(=S)(Nc1nc(N)cc(=O)[nH]1)OCCC` belongs inactive: 6.36%.
As to `O=[As](O)(c1cccc(O)c1)c1cccc(O)c1`, the max response was inactive: -1.19%.
`Cc1cccc(OCC(=O)OC2CN3CCC2CC3)c1` (stereo not given): the max response is inactive: -10.6%.
For the molecule `O=C(OC1CN2CCC1CC2)c1ccc(Cl)cc1` (stereo not given), the max response is inactive: -0.642%.
For the molecule `COc1cc(C(=O)NCC2(N3CCOCC3)CCCCC2)cc(Cl)c1OC(C)C`, the max response is inactive: 1.89%.
For the molecule `O=[As](O)(O)c1cccnc1`, the max response is inactive: -0.83%.
For `CS(=O)(=O)c1ccc(Cl)c(NC(=O)COC(=O)C(O)(c2ccccc2)c2ccccc2)c1`, the max response was inactive: 5.77%.
To `CC(=O)Nc1ccc([As](=O)(O)O)c(O)c1` belongs inactive: 0.226%.
As for `Cc1ccccc1CN(C)C(=O)COC(=O)C(O)(c1ccccc1)c1ccccc1`, the max response was inactive: 6.37%.
Consider `C[C@@H]1C=CCP(=O)(Oc2ccccc2)O1` (stereo not given in full), for which the max response is inactive: -2.65%.
On to `C[C@H]1OP(=O)(Oc2ccccc2)C[C@@H]2O[C@@H]21` (stereo not given in full), for which the max response was inactive: -1.45%.
Consider `N#C/C(=C\c1ccc(N(CCBr)CCBr)cc1)C(N)=O`, for which the max response is inactive: -15%.
Consider `CC(=O)c1ccc(N2CC2c2ccncc2)cc1` (stereo not given), for which the max response was inactive: -2.76%.
On to `COC(=O)C1(C)COP(=O)(NCc2ccccc2)OC1` (stereo not given), for which the max response was inactive: 10.5%.
In the case of `CC(C)(C)C(=O)NC(Sc1ccccc1)C(Cl)(Cl)Cl` (stereo not given), the max response is inactive: 16.5%.
Consider `CCc1cc(O)c([N+](=O)[O-])c(C)c1[N+](=O)[O-]`, for which the max response was inactive: -21.3%.
The same measure for `O=P1(Nc2nc3ccc(Cl)cc3s2)COc2ccccc2O1` (stereo not given): inactive: -2.89%.
As to `CCOc1ccc(C2=NCC(CBr)S2)cc1` (stereo not given), the max response is inactive: -4.8%.
To `Cc1ccccc1OP(=O)(Nc1ccccn1)Oc1ccccc1C` belongs inactive: 8.1%; to `CC(NC(=O)COC(=O)C(O)(c1ccccc1)c1ccccc1)c1ccccc1` (stereo not given), inactive: -2.87%; to `CN(C)C(=O)Oc1noc2ccccc12`, inactive: 0.0606%.
The same measure for `O=c1c2cc([N+](=O)[O-])ccc2[nH]c2c([N+](=O)[O-])cc([N+](=O)[O-])cc12`: inactive: -10.3%.
To `O=C(OC1CN2CCC1CC2)c1ccccc1` (stereo not given) belongs inactive: -6.2%; to `CCC(=O)N1C2C3N(C(=O)CC)C1C1N(C(=O)CC)C(C(N1C(=O)CC)N3C(=O)CC)N2C(=O)CC`, inactive: -3.34%; to `COC(=O)c1cc2c(s1)N=C(c1ccccc1)N(C)P2(=O)N1CCOCC1` (stereo not given), inactive: -0.791%.
